One molecule from patent US9962447B2, “Supramolecular aggregates comprising maleimido cores” (UFPEPTIDES S.R.L., priority 2013, dated 2018) can be followed below.

Amino acid sequences for entries named in this document (tags omitted).
UniProt P35372, whole entry: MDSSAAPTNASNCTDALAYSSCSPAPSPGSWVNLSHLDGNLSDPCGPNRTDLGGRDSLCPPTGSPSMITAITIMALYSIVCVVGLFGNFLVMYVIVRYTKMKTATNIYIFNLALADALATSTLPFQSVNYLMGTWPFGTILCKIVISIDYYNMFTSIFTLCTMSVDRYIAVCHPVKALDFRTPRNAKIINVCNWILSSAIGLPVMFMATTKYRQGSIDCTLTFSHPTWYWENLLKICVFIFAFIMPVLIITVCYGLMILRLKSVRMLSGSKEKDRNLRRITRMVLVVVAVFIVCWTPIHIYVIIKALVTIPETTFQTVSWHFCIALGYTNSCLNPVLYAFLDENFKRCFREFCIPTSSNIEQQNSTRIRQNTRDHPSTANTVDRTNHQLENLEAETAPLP

In the assay the target is MOP receptor (Homo sapiens, UniProt P35372). The experiment in a line: Calcium mobilization in CHO cells expressing MOP receptor and Gαqi5. It counts as cell-based. Particulars: inactive = inactive up to 1 μM. The protocol: Cell cultures were kept at 37° C. in 5% CO2 humidified air. In all cases experimental cultures were free from selection agents (hygromycin B, G418). When confluence was reached (3-4 days), cells were sub-cultured as required using trypsin EDTA and used for experimentation. Cells were seeded at a density of 50,000 cells/well into 96-well black, clear-bottom plates. After 24 hours incubation the cells were loaded with medium supplemented with 2.5 mM probenecid, 3 μM of the calcium sensitive fluorescent dye Fluo-4 AM and 0.01% pluronic acid, for 30 min at 37° C. Afterwards the loading solution was aspirated and 100 μl/well of assay buffer: Hank's Balanced Salt Solution (HBSS) supplemented with 20 mM HEPES, 2.5 mM probenecid and 500 μM Brilliant Black (Aldrich) was added. […] On-line additions were carried out in a volume of 50 μl/well. To facilitate drug diffusion into the wells in antagonist type experiments, the present studies were performed at 37° C. and three cycles of mixing (25 μl from each well moved up and down 3 times) were performed immediately after antagonist injection to the wells.
Four mice were monitored in parallel. […] Animals locomotion was recorded for 60 min.
Background: Calcium flux is commonly read through the fluorescence of an indicator in the cells.

Consider `C[C@@H](NC(=O)[C@@H](N)Cc1ccc(O)cc1)C(=O)N[C@@H](Cc1ccccc1)C(=O)NCC(=O)N[C@@H](Cc1ccc(O)cc1)C(=O)N1CCC[C@H]1C(=O)N[C@@H](CO)C(N)=O` [Dermorphin], for which the EC50 (commonly the midpoint of the concentration-response curve) was 0.513 nM.
